Experimental data reported in patent publication US8309768B2, “FTY720-derived anticancer agents” (The Ohio State University Research Foundation, priority 2010, dated 2012).

Chains of the proteins cited; added tags and fusions are not shown.
UniProt P21453, whole entry: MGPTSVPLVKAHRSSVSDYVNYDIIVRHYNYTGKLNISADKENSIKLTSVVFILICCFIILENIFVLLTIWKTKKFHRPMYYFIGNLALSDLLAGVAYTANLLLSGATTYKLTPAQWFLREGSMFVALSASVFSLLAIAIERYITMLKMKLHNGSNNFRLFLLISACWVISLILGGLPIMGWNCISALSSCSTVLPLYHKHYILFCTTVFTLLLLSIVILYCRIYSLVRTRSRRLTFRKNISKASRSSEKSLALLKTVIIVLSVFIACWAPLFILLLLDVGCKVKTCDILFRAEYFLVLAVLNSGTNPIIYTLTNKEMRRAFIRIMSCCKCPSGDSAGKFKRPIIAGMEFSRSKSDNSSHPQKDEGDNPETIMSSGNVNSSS

Biological target: T1, S1P1 receptor-overexpressing Huh7 cells (Homo sapiens, UniProt P21453)
T1 construct: expressed in transfected cells
Assay: Immunocytochemical analysis of S1P1 receptor internalization
Format: cell-based
Settings: immunocytochemistry
Procedure: Overexpression of S1P1 Receptors. Huh7 or Hep3B cells were transfected with plasmids encoding S1PR1, Flag-tagged GST-π or hemagglutinin (HA)-tagged, CA-Akt. The corresponding empty vectors were used as controls. Stable clones were selected over 3 weeks by geneticin, and the expression of cloned proteins was confirmed by Western blotting.
Immunocytochemistry. Immunocytochemical analysis of S1P1 internalization and PKCδ nuclear translocation were performed as described. Tseng et al., Mol Pharmacol 70, 1534-1541 (2006). Briefly, treated cells were washed, fixed with 4% paraformaldehyde, and permeabilized with 0.1% Triton X-100. After blocking with 2% FBS, cells were incubated with rabbit anti-S1P1 or rabbit anti-PKCδ antibodies (1:200 dilution, 4° C., 24 h), followed by Alexa Fluor 488-conjugated goat anti-rabbit IgG (room temperature, 1 h). Nuclei were counterstained with a 4,6-diamidino-2-phenylindole (DAPI)-containing mounting medium (Vector Laboratories, Burlingame, Calif.).

With `CCCCCCCCc1ccc(CCC(N)(CO)COP(=O)(O)O)cc1` (stereo not shown) [p-FTY720] the “S1P1 receptor internalization and clustering in the cytoplasm” value was “profound effect”.
